Experimental findings from patent US12329774B2, “Method and composition for enhancing the quality and benefits of sleep” (priority 2020, dated 2025) are described below.

In the experiment the test system is MDA, SOD, CAT, GSHPx. Briefly: Brain antioxidant status in caffeine-induced wakefulness mice. Type of experiment: in vivo. To be noted: caffeine followed by saline (C) or test article (20 mg theanine/kg), means and standard deviations. How it is done: Animals were anesthetized with urethane ([…], i.p., Sigma U2500). Body temperature was maintained between 36.5 and 37° C. with homeothermic blanket. Mice were stabilized under a stereotaxic frame (World Precision Instruments, Berlin; Germany) and an incision was made on the skin along the anterior/posterior line of the skull. The left […] was removed gently with a dental drill (Marothon-3; Korea). Two Ag-AgCl sphere electrodes were placed over the left hemisphere with the reference electrode attached on the pinna. The mice received drug injections at 13:20 and 13:30 according to the predetermined treatment plan as follows: • 1) Control: Saline followed by saline; • 2) C (Positive Control): […] Brains were rapidly removed, frozen on dry ice and stored at -80° C. until analyses could be performed. Biochemical and Oxidative Stress Markers-Serum melatonin, serotonin, and dopamine were measured using ELISA kits. Brain levels of malondialdehyde (MDA) were measured by HPLC. Brain activities of superoxide dismutase (SOD), catalase (CAT) and glutathione peroxidase (GSHPx) were measured using ELISA kits for each analyte.

As to `Cn1c(=O)c2c(ncn2C)n(C)c1=O` [C, Caffeine, reference compound], the MDA is given as 2.83 + 0.13a nmol/g.
